Laboratory results reported in PubChem BioAssay AID1920062 (Sanford-Burnham Center for Chemical Genomics, 2024).
Only a part is listed here, and it is no random draw. The source made the active and inactive calls.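 How the source made its calls: active means activation at 10 µM reaching about 35% in either raw or pattern-adjusted values (limit read from the data); inactive means the rest.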

The chains behind the UniProt entries cited, without tags or fusion partners. Where a name states a change or a piece, a line headed by the entry shows the natural chain unless it says otherwise.
UniProt P20594: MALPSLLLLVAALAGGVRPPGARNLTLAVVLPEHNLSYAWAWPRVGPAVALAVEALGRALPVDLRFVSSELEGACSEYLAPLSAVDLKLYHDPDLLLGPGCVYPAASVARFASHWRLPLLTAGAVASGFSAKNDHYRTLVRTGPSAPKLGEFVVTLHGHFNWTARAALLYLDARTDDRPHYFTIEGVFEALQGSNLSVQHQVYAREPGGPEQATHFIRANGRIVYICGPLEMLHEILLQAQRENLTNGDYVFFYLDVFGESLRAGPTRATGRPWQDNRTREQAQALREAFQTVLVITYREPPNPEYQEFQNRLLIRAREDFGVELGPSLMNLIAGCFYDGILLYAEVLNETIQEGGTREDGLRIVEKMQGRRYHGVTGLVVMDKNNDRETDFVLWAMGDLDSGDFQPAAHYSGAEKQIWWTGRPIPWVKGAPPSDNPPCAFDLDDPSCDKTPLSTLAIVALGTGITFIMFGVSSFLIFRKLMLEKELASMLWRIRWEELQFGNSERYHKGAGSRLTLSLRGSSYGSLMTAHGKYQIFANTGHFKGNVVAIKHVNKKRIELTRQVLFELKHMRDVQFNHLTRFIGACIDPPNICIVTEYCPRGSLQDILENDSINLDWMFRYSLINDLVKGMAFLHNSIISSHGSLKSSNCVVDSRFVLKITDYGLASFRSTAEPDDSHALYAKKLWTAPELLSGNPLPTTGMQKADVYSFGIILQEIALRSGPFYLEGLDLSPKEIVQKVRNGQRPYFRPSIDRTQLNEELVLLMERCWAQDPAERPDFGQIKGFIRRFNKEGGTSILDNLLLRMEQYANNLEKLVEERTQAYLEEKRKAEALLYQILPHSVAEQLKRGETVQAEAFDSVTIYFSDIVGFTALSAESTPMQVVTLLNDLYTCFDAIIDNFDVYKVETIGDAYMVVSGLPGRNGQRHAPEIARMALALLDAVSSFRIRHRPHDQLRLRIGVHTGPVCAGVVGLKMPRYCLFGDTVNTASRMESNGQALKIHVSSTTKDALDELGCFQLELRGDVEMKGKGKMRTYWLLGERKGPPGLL

These molecules were tested against Atrial natriuretic peptide receptor 2 (Homo sapiens) (UniProt P20594) (assay: human GC-B receptor activators, primary screen, HEK293 GC-B cells, cGMP TR-FRET, EC30 CNP (AID 1920062)). Details: at 10 µM, stronger effect = higher value, 0% at EC30 CNP, 100% saturating CNP.

Compound | activation
CC(=O)Nc1ccc(Oc2c([N+](=O)[O-])cc([N+](=O)[O-])cc2[N+](=O)[O-])cc1 | inactive: -2.06%
CC(=O)Nc1ccc([As](=O)(O)O)c(O)c1 | inactive: 0.78%
C[C@@H]1C=CCP(=O)(Oc2ccccc2)O1 (stereo not given in full) | inactive: 1%
C[C@H]1OP(=O)(Oc2ccccc2)C[C@@H]2O[C@@H]21 (stereo not given in full) | inactive: 0.69%
Cc1ccccc1CN(C)C(=O)COC(=O)C(O)(c1ccccc1)c1ccccc1 | inactive: 2.21%
COC(=O)C1(C)COP(=O)(NCc2ccccc2)OC1 (stereo not given) | inactive: -0.65%
N#C/C(=C\c1ccc(N(CCBr)CCBr)cc1)C(N)=O | inactive: -1.72%
CC(=O)c1ccc(N2CC2c2ccncc2)cc1 (stereo not given) | inactive: 6.59%
CC(C)(C)C(=O)NC(Sc1ccccc1)C(Cl)(Cl)Cl (stereo not given) | inactive: 8.07%
CCc1cc(O)c([N+](=O)[O-])c(C)c1[N+](=O)[O-] | inactive: 4.19%
CCOc1ccc(C2=NCC(CBr)S2)cc1 (stereo not given) | inactive: 2.69%
O=P1(Nc2nc3ccc(Cl)cc3s2)COc2ccccc2O1 (stereo not given) | inactive: -1.61%
CN(C)C(=O)Oc1noc2ccccc12 | inactive: -1.09%
O=c1c2cc([N+](=O)[O-])ccc2[nH]c2c([N+](=O)[O-])cc([N+](=O)[O-])cc12 | inactive: 8.18%
Cc1ccccc1OP(=O)(Nc1ccccn1)Oc1ccccc1C | inactive: 5.18%
CC(NC(=O)COC(=O)C(O)(c1ccccc1)c1ccccc1)c1ccccc1 (stereo not given) | inactive: -2.77%
CCC(=O)N1C2C3N(C(=O)CC)C1C1N(C(=O)CC)C(C(N1C(=O)CC)N3C(=O)CC)N2C(=O)CC | inactive: 4.66%
O=C(OC1CN2CCC1CC2)c1ccccc1 (stereo not given) | inactive: -2.3%
Cc1ccc(OP(=O)(Nc2ccccn2)Oc2ccc(C)cc2)cc1 | inactive: 2.5%
CC(=O)NC(SC(=S)N(CC(C)C)CC(C)C)C(Cl)(Cl)Cl (stereo not given) | inactive: -7.2%
COC(=O)c1cc2c(s1)N=C(c1ccccc1)N(C)P2(=O)N1CCOCC1 (stereo not given) | inactive: -3.06%
O=P1(N(CCCl)CCCl)OCCC2CCCCN21 (stereo not given) | inactive: -4.61%

Compound | activation
Cc1ccc(NP(=O)(Oc2cccc(C)c2)Oc2cccc(C)c2)nc1 | inactive: -3.49%
c1ccc(-c2nn[nH]n2)c(-c2nn[nH]n2)c1 | inactive: 0.39%
CCNC(=S)/N=C(\N)N[N+](=O)[O-] | inactive: 1.04%
O=C(NC1CCS(=O)(=O)C1)NP(=S)(Oc1ccccc1)Oc1ccccc1 (stereo not given) | inactive: 2.6%
O=C(OC1CN2CCC1CC2)c1cccc(Cl)c1 (stereo not given) | inactive: 4.59%
Nc1ccc([As](=O)(O)c2ccc([N+](=O)[O-])cc2)cc1 | inactive: -2.89%
C(Cc1nn[nH]n1)Cc1nn[nH]n1 | inactive: 2.2%
C/C(N)=N\P(=O)(OCc1ccccc1)OCc1ccccc1 | inactive: -13.8%
O=[As](O)(c1ccccc1)c1ccc(O)cc1 | inactive: 0.88%
O=[N+]([O-])c1ncn(CCn2cnc([N+](=O)[O-])n2)n1 | inactive: 2.8%
CC(=O)NC(SC(=S)N(C)C)C(Cl)(Cl)Cl (stereo not given) | inactive: 0.33%
C[C@H]1OP(=O)(Oc2ccccc2)[C@H](O)[C@H](O)[C@H]1N=[N+]=[N-] (stereo not given in full) | inactive: 4.02%
O=P(Nc1nc2ccccc2s1)(c1ccccc1)c1ccccc1 | inactive: -2.82%
O=P(Nc1ccccn1)(c1ccc(Br)cc1)c1ccc(Br)cc1 | inactive: -19.3%
CN(C)C1(CNC(=O)c2ccc(Cl)c(S(N)(=O)=O)c2)CCCCC1 | inactive: 0.87%
Nc1ccc(CCCCOc2ccccc2)cc1 | inactive: -0.5%
COc1ccc(N)c([N+](=O)[O-])c1[N+](=O)[O-] | inactive: -2.53%
c1nnnn1CCn1cnnn1 | inactive: -0.04%
CC(C)C(=O)NC(Sc1ccccc1)C(Cl)(Cl)Cl (stereo not given) | inactive: 3.03%
O=P(Nc1nccs1)(c1ccccc1)c1ccccc1 | inactive: -3.67%
c1cc(-c2nn[nH]n2)ccc1-c1nn[nH]n1 | inactive: -0.01%
CC1CCN(C(=O)Oc2c(Cl)cc(Cl)c3cccnc23)CC1 | inactive: -10.7%

Compound | activation
CN(C)C(=O)OCCc1n(C)cc[n+]1C | inactive: -0.69%
CC(C)=N/N=C(\N)N[N+](=O)[O-] | inactive: -0.59%
CC(C)c1nc(Nc2ccccc2)n(P(=O)(N(C)C)N(C)C)n1 | inactive: -0.15%
CCN(/C(=N/P(=O)(N1CCOCC1)N1CCOCC1)N1CCOCC1)c1ccc(OC)cc1 | inactive: 1.71%
C[N+]1=C2C=CC=CC=C2SC12C([N+](=O)[O-])=CC([N+](=O)[O-])=C[C-]2[N+](=O)[O-] (stereo not given) | inactive: 3.64%
Nc1ccc([As](=O)(O)c2ccc(N)cc2)cc1 | inactive: 2.43%
CCc1nc2c(n1)c1c(non1O)c1c2no[n+]1[O-] | inactive: 8.28%
O=[N+]([O-])c1cc([N+](=O)[O-])c(CCNc2ccccc2)c([N+](=O)[O-])c1 | inactive: -2.98%
Cc1ccc(NP(=O)(Oc2ccccc2)Oc2ccccc2)nc1 | inactive: -0.84%
O=[N+]([O-])c1cccc2n[nH]nc12 | inactive: 0.3%
CC(=O)N1C2C3N(C(C)=O)C1C1N(C(C)=O)C(C(N1C(C)=O)N3C(C)=O)N2C(C)=O | inactive: 2.15%
COc1ccc(C2=NCC(CBr)S2)cc1 (stereo not given) | inactive: 2.3%
O=C(O)CNc1ccc([As](=O)(O)O)cc1 | inactive: -3.81%
O=[N+]([O-])c1cccc(NC2=NCC(CBr)S2)c1 (stereo not given) | inactive: 3.93%
COC(=O)C1(C)COP(=O)(Nc2ccccc2)OC1 (stereo not given) | inactive: 2.63%
O=[N+]([O-])c1ncn(CCn2ncnc2[N+](=O)[O-])n1 | inactive: 2.69%
CC(C)(C)C(=O)NC(Sc1ccncn1)C(Cl)(Cl)Cl (stereo not given) | inactive: 2.86%
O=C(Nc1cc([As](=O)(O)O)ccc1O)c1ccccc1 | inactive: -4.12%
O=P1(N(CCCl)CCCl)OCCCS1 (stereo not given) | inactive: 2.44%
Nc1cccc2ccc([As](=O)(O)O)cc12 | inactive: -0.55%
CCN(N=Nc1nonc1N)c1nonc1N | inactive: -2.18%
